The results in this text go back to patent US20250367263A9, “Therapeutic Regimens and Methods for Treatment of Cardiovascular Risk Factors using a GLP-1R and GCGR Agonist” (Spitfire Pharma LLC, priority 2022, published 2025).

Chains of the proteins cited; added tags and fusions are not shown. Residues count along the entry.
UniProt P47871, 26-477: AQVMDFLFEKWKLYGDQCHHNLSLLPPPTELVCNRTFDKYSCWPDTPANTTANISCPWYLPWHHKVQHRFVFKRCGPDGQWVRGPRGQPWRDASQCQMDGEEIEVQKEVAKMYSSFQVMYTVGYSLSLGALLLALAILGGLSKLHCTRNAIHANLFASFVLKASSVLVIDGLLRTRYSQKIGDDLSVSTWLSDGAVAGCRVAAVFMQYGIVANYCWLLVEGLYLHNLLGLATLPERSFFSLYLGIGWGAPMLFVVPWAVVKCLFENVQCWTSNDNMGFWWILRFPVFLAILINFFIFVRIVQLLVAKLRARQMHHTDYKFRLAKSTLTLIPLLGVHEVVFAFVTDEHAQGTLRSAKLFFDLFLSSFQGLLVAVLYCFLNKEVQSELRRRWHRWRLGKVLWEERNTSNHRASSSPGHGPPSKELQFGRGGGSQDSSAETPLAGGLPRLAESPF

In data set [1] the test system is ABCG8 gene expression in liver. Put plainly: Liver gene expression by RT-PCR in diet-induced obese hamsters: ABCG8. To be noted: 10 nmol/kg SC daily for 21 days, as opposed to semaglutide and vehicle. It counts as in vivo, male Golden Syrian hamsters. The protocol: The study was conducted in male Golden Syrian hamsters placed on a free choice diet (free choice between a chow diet with normal tap water or a high fat/cholesterol diet (Safe Diets, 40.8% fat, 14.8% protein, 44.4% carbohydrates and 0.5% cholesterol, 4444.2 kcal/kg diet) with 10% fructose enriched tap water (0.4 kcal/L) provided ad libitum for a minimum of 20 weeks prior to the study start and until the end of the experiment. After randomization based on body weight, hamsters were assigned to three groups of 5 animals receiving vehicle, pemvidutide (10 nmol/kg) or semaglutide (10 nmol/kg) administered subcutaneously daily for 21 days. After 21 days, hamsters were sacrificed, and livers were collected. Total RNA was extracted from frozen liver tissue before measuring gene expression by RT-PCR across a range of markers including CYP7A, ABCA1, ABCG1, ABCG5, ABCG8, SREBP1c, SRB1 and LDL-R.

In data set [2] the target is glucagon receptor (GCGR) (Homo sapiens, UniProt P47871). Put plainly: GCGR agonist activity (cellular assay). It counts as cell-based. The source says:
This disclosure relates to a dual agonist peptide(s) as well as pharmaceutical dosage formulations comprising, and methods for using, the same. The dual agonist peptides have affinity for, and in preferred embodiments about equal affinity for, glucagon-like peptide 1 receptor (GLP-1R) and glucagon receptor (GCGR), as may be determined using a cellular assay. In preferred embodiments, this disclosure provides methods for using pemvidutide (e.g., preferably pharmaceutical dosage formulation comprising SEQ ID NO: 1) that upon administration to a human being prevents and/or treats cardiovascular (CV) disease and/or CV disease-related conditions, symptoms, causes, and/or risks thereof. In some embodiments, the human being is overweight, obese (e.g., a body mass index of at least about 25), and may or may not suffer from type 2 diabetes. In preferred embodiments, the administration of pemvidutide as disclosed herein results in the weight loss and/or a reduction in waistline (“waist circumference”) measurements. In preferred embodiments, the CV disease-related conditions, including but not limited to high cholesterol, triglycerides, LDL and/or VLDL particle concentration and/or diameter, weight loss and/or reduction in waistline measurement, is significant as measured against an untreated or control (e.g., vehicle-treated) individual and/or population. […]

Data set [3] deals with non-diabetic obese and overweight subjects. Put plainly: Phase II 24-week placebo-controlled study (NCT05295875), interim analysis. Type of data set: in vivo, human. The source says: Results presented in this example correspond to a 24-week interim analysis obtained from a placebo-controlled phase II study (ClinicalTrials.gov Identifier: NCT05295875) evaluating pemvidutide (ALT-801) in obese and overweight subjects. Key eligibility criteria were: (1) Men and women, ages 18-75 years; (2) at least one unsuccessful weight loss attempt per Investigator judgement; (3) Body Mass Index (BMI)≥30 kg/m^2 or BMI≥27 kg/m^2 with at least one obesity-related comorbidity (history of cardiovascular disease, hypertension, dyslipidemia, pre-diabetes or obstructive sleep apnea) and (4) non-diabetes (HbAlc≤6.5% and fasting glucose≤125 mg/dL). Eligible subjects were randomized 1:1:1:1 to one of the following treatment arms: Group 1 (39 subjects): pemvidutide 1.2 mg SC once weekly for 24 weeks; Group 2 (40 subjects): pemvidutide 1.8 mg administered subcutaneously once weekly for 24 weeks; Group 3 (40 subjects): pemvidutide 0.6 mg administered subcutaneously for 1 week, 1.2 mg administered subcutaneously for 1 week, 1.8 mg administered subcutaneously once weekly for 2 weeks, followed by 2.4 mg administered subcutaneously once weekly for 20 additional weeks (in sequence) and Group 4 (41 subjects): Placebo administered subcutaneously once weekly for 24 weeks. The randomization of subjects was stratified based on sex and baseline body mass index (BMI<35 kg/m^2 vs. ≥35 kg/m^2). A minimum of 25% of randomized subjects were male. All subjects received counselling on a reduced-calorie diet of 1200-1500 calories for individuals <250 lbs (113.6 kg) and 1500-1800 calories for individuals ≥250 lbs (113.6 kg) and a gradual increase in physical activity (targeting 150 min of physical activity per week) by a qualified healthcare professional at screening and at subsequent visits during the treatment period. Subjects were instructed to record their food intake and physical activity daily, and compliance with lifestyle interventions will be assessed by the investigator on a regular basis. A subgroup of subjects was subjected to MRI-PDFF to evaluate the hepatic fat fraction in as well as composition to measure total body adipose tissue (AT) and adipose tissue-free mass (ATFM).

Setting [4] is: week 24, all doses (1.2, 1.8, 2.4 mg per week).

In general, EC50 refers to the concentration giving half of the maximal effect. With `CC[C@H](C)[C@H](NC(=O)[C@H](Cc1ccccc1)NC(=O)[C@H](CCC(=O)O)NC(=O)[C@@H]1CCCCNC(=O)CC[C@H](NC(=O)[C@H](CC(=O)O)NC(=O)[C@H](CC(C)C)NC(=O)[C@H](Cc2ccc(O)cc2)NC(=O)[C@H](CCCCN)NC(=O)[C@H](CO)NC(=O)[C@H](Cc2ccc(O)cc2)NC(=O)[C@H](CC(=O)O)NC(=O)[C@H](CO)NC(=O)[C@@H](NC(=O)[C@H](Cc2ccccc2)NC(=O)[C@@H](NC(=O)CNC(=O)[C@H](CCC(N)=O)NC(=O)C(C)(C)NC(=O)[C@@H](N)Cc2c[nH]cn2)[C@@H](C)O)[C@@H](C)O)C(=O)N[C@@H](CCCCNC(=O)[C@H]2O[C@@H](OCCCCCCCCCCCCCCCCCC(=O)O)[C@H](O)[C@@H](O)[C@@H]2O)C(=O)N[C@@H](C)C(=O)N[C@@H](C)C(=O)N1)C(=O)N[C@@H](CCC(N)=O)C(=O)N[C@@H](Cc1c[nH]c2ccccc12)C(=O)N[C@@H](CC(C)C)C(=O)N[C@@H](CC(C)C)C(=O)N[C@@H](CCC(N)=O)C(=O)N[C@H](C(N)=O)[C@@H](C)O` [pemvidutide], the “ABCG8 gene expression in liver, fold change compared to vehicle” value in data set [1] is reported as “significant increase”. The same compound yielded an EC50 in data set [2] of roughly 0.04 nM. For the same compound, the heart rate entry in data set [3] (24-week treatment at 1.2 mg, 1.8 mg and 2.4 mg) is reported as “does not induce a significant change”. The “systolic and diastolic blood pressures” value in data set [3] (24-week treatment, 1.2, 1.8, 2.4 mg, as opposed to placebo) was “improves”. In data set [3] (setting [4]), the “serum lipids as compared to baseline” value is on record as “improvements” and the waist circumference entry was “significant reduction”.
